Experiments:
C2C12 = test: Selectivity for Drosophila melanogaster ryanodine receptor over ryanodine receptor 1 in mouse C2C12 cells; format: cell-based
PC-12 = test: Selectivity for Heliothis virescens recombinant ryanodine receptor over ryanodine receptor 2 in rat PC12 cells; format: cell-based

For `CNC(=O)c1cc(Cl)cc(C)c1NC(=O)c1cc(Br)nn1-c1ncccc1Cl` [CHLORANTRANILIPROLE], the Selectivity ratio (C2C12) was 300 and the Selectivity ratio (PC-12) was greater than 2000.

Reference: ChEMBL document CHEMBL1158385, “New and selective ryanodine receptor activators for insect control” (Bioorg Med Chem, 2009)
